The text below walks through data of US11408900B2, “Secreted P-glycoprotein is a non-invasive biomarker of chronic rhinosinusitis” (Massachusetts Eye and Ear Infirmary, priority 2016, dated 2022).

By UniProt entry, the sequences of proteins in these tests, tags left out.
UniProt P08183, whole entry: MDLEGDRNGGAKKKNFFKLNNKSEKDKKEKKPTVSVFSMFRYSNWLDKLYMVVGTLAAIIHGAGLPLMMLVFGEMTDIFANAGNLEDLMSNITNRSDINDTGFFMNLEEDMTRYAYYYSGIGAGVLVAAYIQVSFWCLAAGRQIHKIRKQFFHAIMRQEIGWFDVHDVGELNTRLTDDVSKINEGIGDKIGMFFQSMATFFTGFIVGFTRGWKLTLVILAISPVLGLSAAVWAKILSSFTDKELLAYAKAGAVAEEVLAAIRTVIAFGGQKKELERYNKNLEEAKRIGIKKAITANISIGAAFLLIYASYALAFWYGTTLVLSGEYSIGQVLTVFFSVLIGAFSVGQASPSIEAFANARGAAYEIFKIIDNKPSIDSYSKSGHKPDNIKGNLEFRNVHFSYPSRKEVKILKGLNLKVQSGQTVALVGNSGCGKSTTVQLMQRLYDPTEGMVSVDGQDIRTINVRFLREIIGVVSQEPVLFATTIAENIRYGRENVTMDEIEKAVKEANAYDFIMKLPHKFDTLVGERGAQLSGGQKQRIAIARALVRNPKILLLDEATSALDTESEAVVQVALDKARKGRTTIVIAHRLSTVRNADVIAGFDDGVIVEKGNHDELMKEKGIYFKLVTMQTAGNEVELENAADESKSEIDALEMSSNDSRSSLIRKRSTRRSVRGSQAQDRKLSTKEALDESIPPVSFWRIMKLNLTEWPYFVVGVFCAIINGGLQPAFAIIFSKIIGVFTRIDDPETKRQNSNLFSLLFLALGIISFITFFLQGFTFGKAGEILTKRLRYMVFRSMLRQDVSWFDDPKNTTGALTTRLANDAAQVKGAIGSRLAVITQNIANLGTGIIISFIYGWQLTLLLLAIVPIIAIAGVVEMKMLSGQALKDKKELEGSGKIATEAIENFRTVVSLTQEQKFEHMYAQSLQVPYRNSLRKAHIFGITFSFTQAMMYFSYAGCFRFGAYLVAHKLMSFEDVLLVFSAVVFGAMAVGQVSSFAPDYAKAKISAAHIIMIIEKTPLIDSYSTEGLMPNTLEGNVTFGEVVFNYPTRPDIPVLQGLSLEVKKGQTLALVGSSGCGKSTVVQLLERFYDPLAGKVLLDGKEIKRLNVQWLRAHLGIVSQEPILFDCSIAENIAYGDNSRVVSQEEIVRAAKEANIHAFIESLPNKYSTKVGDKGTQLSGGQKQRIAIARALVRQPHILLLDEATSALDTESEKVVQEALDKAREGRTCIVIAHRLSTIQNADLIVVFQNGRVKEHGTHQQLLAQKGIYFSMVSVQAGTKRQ

Data set [1] has as its target T1, P-gp (Homo sapiens, UniProt P08183). As to the kind of experiment: Calcein AM assay of exosome mediated transfer of functional P-gp. The format is cell-based. More on the design: endogenous in cells; host or cells: Primary human sinonasal epithelial cell cultures (HSNECCs) from control and CRSwNP patients, plus P-gp carried by autologous nasal-mucus exosomes. The note with it: 0.625 μM Zosuquidar together with exosomes. As to the method:
A Calcein Acetoxymethylester (AM) assay[22] was performed on the HSNEC cultures following dosing with autologous purified mucus derived exosomes to quantify the relative acquisition of functional P-gp activity. HSNECCs were exposed to BEGM containing exosomes (1.25×10^9 exosomes/mL) or exosomes along with 0.625 μM of the 3rd generation P-gp inhibitor Zosuquidar 3HCl (Medkoo, Chapel Hill, N.C.). Pre-warmed Calcein AM (Life Technologies) was added to each well for a final concentration of 2.5 μM as previously described. After 15 minutes, each well was washed 3× with cold phosphate buffered saline and the wells were imaged in triplicate. Fluorescence was quantified using the corrected total cell fluorescence method as previously described by McCloy et al.. A reduction in calcein fluorescence corresponds to a gain in P-gp function while an increase in fluorescence corresponds to successful inhibition.

For data set [2], the target named is T1, P-gp. To be noted: cited from earlier work.

With `Cl.Cl.Cl.O[C@@H](COc1cccc2ncccc12)CN1CCN([C@@H]2c3ccccc3[C@@H]3[C@H](c4ccccc42)C3(F)F)CC1` [Zosuquidar, (2R)-1-{4-[(1aR,6r,10bS)-1,1-Difluoro-1,1a,6,10b-tetrahydrodibenzo[a,e]cyclopropa[c]cyclohepten-6-yl]piperazin-1-yl}-3-(quinolin-5-yloxy)propan-2-ol,trihydrochloride], the “effect on exosome mediated gain of P-gp function” value at P-gp [1] is recorded as “abrogated”. Besides, the “potency relative to the first and second-generation inhibitors” value on P-gp [2] was “about 10 fold”.
